The text below walks through data of PubChem BioAssay AID588436 (Broad Institute, 2011).

SMILES strings stand for the structures. The entries are a selection whose mix differs from that of the whole data set. Some tests of the compounds listed are not included; inactive here does not mean inactive elsewhere. Calls of active or inactive are those of the source. Cut-off read from the data, not from the text of the source: active = activation mostly above about 9.7% (no sharp cut-off); inconclusive = no clear call, values can overlap the other calls; inactive = mostly below about 3.7%.

This test is described as follows: induces V. cholerae light production without autoinducers, primary screen, BH1578 luxS cqsA deficient, single point (AID 588436). The following applies: V. cholerae BH1578 lux reporter, luminescence, 6 h, at 18.7 µM; hits give high values.
For `O=C(NCC1(N2CCCCC2)CCCCC1)c1cc([N+](=O)[O-])ccc1Cl`, the activation is inactive: -0.391%. The value for `CN1[C@@H]2CC[C@H]1CC(OC(=O)C(O)(c1ccccc1)c1ccccc1)C2` (stereo partly specified) was inactive: -0.488%; that for `COc1cc(SC)ccc1C(=O)NCC1(N(C)C)CCCCC1` was “inactive”; that for `CCN(CC)CC(C)C(C)OC(=O)C(O)(c1ccccc1)c1ccccc1` (stereo unspecified) was inactive: 0.027%. The same measure for `CC(C)N1C(=O)CC2(CCN(CCOC(=O)C(O)(c3ccccc3)c3ccccc3)CC2)C1=O`: “inactive”; for `Cc1ccc(C(=O)NCC2(N3CCCCC3)CCCCC2)cc1`: inactive: -0.465%.

As to `CN(C)C1CCCC1OC(=O)C(O)(c1ccccc1)c1ccccc1` (stereo unspecified), the activation was inactive: -0.178%. The same measure for `CN(C)c1ccc(C(=O)NCC2(N(C)C)CCCCC2)cc1`: inactive: 0.585%; for `Cc1ccccc1C(=O)NCC1(N2CCCCC2)CCCCC1`: inactive: -0.141%; for `O=C(NCC1(N2CCCCC2)CCCCC1)c1cc(F)c(F)cc1Cl`: inactive: -0.0915%. The value for `C=CCN1CCN(CCOC(=O)C(O)(c2ccccc2)c2ccccc2)CC1` was inactive: -0.213%.

Take `COc1ccc(C(=O)NCC2(N(C)C)CCCCC2)cc1`: the activation is inactive: -0.018%. The value for `O=C(NCC1(N2CCCCC2)CCCCC1)c1cccc(Br)c1` was inactive: -0.326%; that for `Cc1cc(C(=O)NCC2(N3CCCCC3)CCCCC2)ccc1[N+](=O)[O-]` was inactive: -3.33%.

Turning to `CCN1CCCC(OC(=O)C2(O)c3ccccc3C=Cc3ccccc32)C1` (stereo unspecified), the activation is inactive: 3.57%. The value for `CN(C)C1(CNC(=O)c2ccc(Br)cc2)CCCCC1` was inactive: -6.67%; that for `COc1cc(C(=O)NCC2(N(C)C)CCCCC2)c([N+](=O)[O-])cc1OC` was inactive: -5.56%; that for `COc1ccc(Cl)cc1C(=O)NCC1(N(C)C)CCCCC1` was inactive: -0.618%. The same measure for `COc1cccc(C(=O)NCC2(N3CCCCC3)CCCCC2)c1`: “inactive”; for `O=C(NCC1(N2CCCCC2)CCCCC1)c1cccc(Cl)c1`: inactive: -0.336%; for `O=C(OC1CN2CCC1CC2)C(CO)(c1ccccc1)c1ccccc1` (stereo unspecified): “inactive”. Take `C=C(C)C#CC(O)(C(=O)OC1CCN(C)CC1)c1ccccc1` (stereo unspecified): the activation entry was “inactive”. The same measure for `COc1ccc(Br)c(C(=O)NCC2(N3CCCCC3)CCCCC2)c1`: inactive: -0.205%; for `O=C(OCCN1CCCC1)C(O)(c1ccccc1)c1ccccc1`: “inactive”; for `CC(C)Oc1ccc(C(=O)NCC2(N(C)C)CCCCC2)cc1`: inactive: 0.603%. For the compound `CN(C)c1cccc(C(=O)NCC2(N(C)C)CCCCC2)c1`, the activation is inactive: 0.397%.
